Patent publication US7582652B2, “Kinase inhibitors” (Eli Lilly and Company, priority 2004, dated 2009)

The chains behind the UniProt entries cited, without tags or fusion partners.
UniProt Q16539, whole entry: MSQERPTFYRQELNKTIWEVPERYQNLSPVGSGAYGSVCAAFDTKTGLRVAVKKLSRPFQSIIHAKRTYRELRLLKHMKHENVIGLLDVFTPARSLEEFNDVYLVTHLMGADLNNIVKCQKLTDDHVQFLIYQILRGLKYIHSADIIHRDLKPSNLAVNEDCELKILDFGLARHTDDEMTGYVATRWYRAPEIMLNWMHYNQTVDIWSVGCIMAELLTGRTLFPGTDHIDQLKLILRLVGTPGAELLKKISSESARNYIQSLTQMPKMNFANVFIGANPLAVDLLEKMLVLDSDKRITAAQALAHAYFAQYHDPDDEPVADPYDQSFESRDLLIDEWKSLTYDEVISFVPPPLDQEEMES

Molecular target: p38 kinase enzyme (Homo sapiens, UniProt Q16539)
Assay: Inhibition of p38 kinase
Format: biochemical
Settings: 33P-ATP, EGF peptide 661-681, 30° C.
Procedure: Standard Solution Preparations
The kinase buffer solution is prepared by combining 2.5 mL 1 M Tris-HCl (pH 7.5), 0.1 ml 1 M dithiothreitol, 1.0 mL 1 M magnesium chloride, and 300 μL 1% Triton X-100 and diluting to 100 mL with water. 84 mL of this kinase buffer solution is combined with 16 mL DMSO to prepare the 16% DMSO solution.
The 200 μM ATP solution is prepared by adding 102.6 μL 10 mM aqueous ATP, 25 μL ^33P-ATP, and 163.5 μL of 4 mM aqueous Epidermal Growth Factor Peptide 661-681 (Biomol, Catalog #P-121) in 5 mL kinase buffer solution.
The p38 kinase enzyme solution is prepared by dissolving 9.5 μL concentrated enzyme solution (250 ng p38 enzyme/μL kinase buffer solution) in 1536 μL kinase buffer solution. […]
10 μL of serially diluted compound is placed with a Beckmnan Multimek 96-well automated liquid handler to the assay plate. […] The plates are allowed to sit for 30 min and counted on a PE/Wallac Microbeta Trilux scintillation counter for ^33P-isotope.
All exemplified compounds were initially tested at 10 concentrations (20 μM−1 nM using 1:3 serial dilutions). […] IC50 values were calculated (IDBS ActivityBase software) for each compound using non-linear regression.

IC50: 2.3 nM
SMILES: CC(C)(C)Cn1c(N)nc2ccc(-c3[nH]c(C(C)(C)C)nc3-c3ccc(F)cc3F)nc21 [EXAMPLE 11, 5-[2-tert-Butyl-5-(2,4-difluorophenyl)-3H-imidazol-4-yl]-3-(2,2-dimethylpropyl)-3H-imidazo[4,5-b]pyridin-2-ylamine methanesulfonate]
